Target: T1, Trifunctional purine biosynthetic protein adenosine-3 (Homo sapiens, UniProt P22102)
T1 sequence (P22102 whole entry): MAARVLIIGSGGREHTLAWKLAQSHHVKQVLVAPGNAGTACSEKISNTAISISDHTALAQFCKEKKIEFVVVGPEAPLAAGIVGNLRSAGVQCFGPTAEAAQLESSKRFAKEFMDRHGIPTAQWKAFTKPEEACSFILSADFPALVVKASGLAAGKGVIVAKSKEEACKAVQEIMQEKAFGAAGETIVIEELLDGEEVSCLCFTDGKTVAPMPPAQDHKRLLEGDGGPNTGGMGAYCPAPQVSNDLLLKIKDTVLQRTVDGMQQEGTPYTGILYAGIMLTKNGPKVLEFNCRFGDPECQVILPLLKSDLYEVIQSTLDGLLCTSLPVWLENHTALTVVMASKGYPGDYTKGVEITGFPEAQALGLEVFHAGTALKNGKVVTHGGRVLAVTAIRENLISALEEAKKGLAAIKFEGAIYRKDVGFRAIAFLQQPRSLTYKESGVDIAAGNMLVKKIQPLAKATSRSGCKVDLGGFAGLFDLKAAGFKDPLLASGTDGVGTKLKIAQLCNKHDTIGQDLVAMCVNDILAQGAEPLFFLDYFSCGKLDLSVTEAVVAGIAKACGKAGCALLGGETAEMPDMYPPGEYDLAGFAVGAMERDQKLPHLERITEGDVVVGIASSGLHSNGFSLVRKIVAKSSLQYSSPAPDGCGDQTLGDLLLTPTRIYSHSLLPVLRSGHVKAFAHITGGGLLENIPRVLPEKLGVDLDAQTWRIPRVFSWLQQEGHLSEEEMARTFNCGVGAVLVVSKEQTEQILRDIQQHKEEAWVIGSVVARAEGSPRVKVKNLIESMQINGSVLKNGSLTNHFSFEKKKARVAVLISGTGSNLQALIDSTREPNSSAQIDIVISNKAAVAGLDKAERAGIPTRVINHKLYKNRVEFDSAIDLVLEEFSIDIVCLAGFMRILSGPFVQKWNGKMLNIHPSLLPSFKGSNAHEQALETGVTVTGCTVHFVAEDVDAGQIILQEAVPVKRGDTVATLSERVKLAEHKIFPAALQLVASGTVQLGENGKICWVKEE
Assay: Inhibition of human recombinant GAR Tfase

Ki: 30 nM
SMILES: Nc1nc(N)c(CCCC(C(=O)C(F)(F)F)c2ccc(C(=O)NC(CCC(=O)O)C(=O)O)cc2)c(=O)[nH]1 (stereo unspecified)

From ChEMBL document CHEMBL1147678, “Discovery of a potent, nonpolyglutamatable inhibitor of glycinamide ribonucleotide transformylase” (J Med Chem, 2006)
